Measurements reported in patent US6593357B1, “Pyrazole compositions useful as inhibitors of ERK” (Vertex Pharmaceuticals Incorporated, priority 2000, dated 2003).

Protein sequences, listed by entry. Tags and fused reporters are not part of them.
UniProt O14965, whole entry: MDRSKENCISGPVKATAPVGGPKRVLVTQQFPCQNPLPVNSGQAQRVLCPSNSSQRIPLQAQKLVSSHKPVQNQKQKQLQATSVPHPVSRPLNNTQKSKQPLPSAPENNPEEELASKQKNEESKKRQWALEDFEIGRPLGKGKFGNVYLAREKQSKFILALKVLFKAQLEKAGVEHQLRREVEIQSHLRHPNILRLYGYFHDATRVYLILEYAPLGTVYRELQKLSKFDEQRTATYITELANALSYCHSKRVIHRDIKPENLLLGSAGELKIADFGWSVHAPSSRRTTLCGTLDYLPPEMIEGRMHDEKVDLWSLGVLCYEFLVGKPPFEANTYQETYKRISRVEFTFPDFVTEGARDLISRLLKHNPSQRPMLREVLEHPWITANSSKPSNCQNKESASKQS

Molecular target: Aurora2 (Homo sapiens, UniProt O14965)
Test: Aurora inhibition, standard coupled enzyme assay
Details: read-out: Aurora2 Inhibitory Activity (IC50 class); 40 μM ATP, 30° C.

- IC50: 5 to 10 µM
SMILES: CCN(C)C(=O)c1cc(-c2[nH]ncc2-c2ccc3c(c2)OCO3)c[nH]1
